Values quoted from earlier work in patent US20090233840A1, “Modified Dynorphin Expression in Animals and Identification of Compounds for Treatment of Obesity and Diabetes” (priority 2004, published 2009).

Protein sequences, listed by entry. Tags and fused reporters are not part of them.
UniProt P35372, whole entry: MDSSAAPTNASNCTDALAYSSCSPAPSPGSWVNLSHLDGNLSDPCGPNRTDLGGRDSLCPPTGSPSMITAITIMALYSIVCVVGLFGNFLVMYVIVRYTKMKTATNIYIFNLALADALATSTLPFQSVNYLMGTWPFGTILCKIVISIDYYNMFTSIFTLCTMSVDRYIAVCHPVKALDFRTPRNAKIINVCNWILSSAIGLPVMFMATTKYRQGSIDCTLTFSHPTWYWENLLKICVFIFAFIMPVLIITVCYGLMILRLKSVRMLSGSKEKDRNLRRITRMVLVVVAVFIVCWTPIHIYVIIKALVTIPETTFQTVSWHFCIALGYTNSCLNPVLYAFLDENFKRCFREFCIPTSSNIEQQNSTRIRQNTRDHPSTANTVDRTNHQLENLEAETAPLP

Biological target: hMOR-1 (Homo sapiens, UniProt P35372)
Conditions: MOR-1 receptor

Substance: dynorphin A-(1-8)
- affinity compared to dynorphin A: relatively higher affinity
